The record followed here is patent US5696231A, “N-substituted glycine derivatives as enzyme inhibitors” (Corvas International, Inc., priority 1994, dated 1997).

Amino acid sequences for entries named in this document (tags omitted). Residues count along the entry.
UniProt P00742, 235-488 limits assumed: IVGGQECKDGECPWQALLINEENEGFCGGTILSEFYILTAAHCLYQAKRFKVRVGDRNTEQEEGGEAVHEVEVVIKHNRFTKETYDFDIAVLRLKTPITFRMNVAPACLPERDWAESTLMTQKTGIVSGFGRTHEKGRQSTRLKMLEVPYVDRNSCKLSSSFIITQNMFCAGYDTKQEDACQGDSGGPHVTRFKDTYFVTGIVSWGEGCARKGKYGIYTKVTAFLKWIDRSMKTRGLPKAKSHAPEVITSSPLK
UniProt P00742, 41-179 partner limits assumed: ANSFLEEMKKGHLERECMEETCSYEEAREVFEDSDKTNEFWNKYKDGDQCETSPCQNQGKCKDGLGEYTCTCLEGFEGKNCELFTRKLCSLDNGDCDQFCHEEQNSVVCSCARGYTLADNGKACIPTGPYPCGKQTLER

Broadly, the IC50 is the concentration that gives 50% inhibition. A lower IC50 goes with greater potency.

The target in the assay is purified human factor Xa (Homo sapiens, UniProt P00742). Description: Determination of IC50: inhibition of factor Xa catalytic activity (chromogenic substrate S2765). The note with it: purified human factor Xa 0.5 nM, S2765 250 micromolar, 30 minute incubation, HBSA pH 7.5. As for the experimental part:
The compounds of the present invention are dissolved in buffer to give solutions containing concentrations such that assay concentrations range from 0 to 100 micromolar. In the assays for factor Xa, thrombin, plasmin, t-PA, aPC, chymotrypsin, and trypsin, a chromogenic synthetic substrate is added to a solution containing test compound and the enzyme of interest and the residual catalytic activity of that enzyme is determined spectrophometrically. The IC50 of a compound of the present invention is determined from the rate of substrate turnover caused by the specific enzyme being measured. IC50 is that concentration of test compound giving 50% inhibition of the rate of substrate turnover. Likewise, the Ki of a compound of the present invention is determined from the rate of substrate turnover caused by the specific enzyme being measured at various enzyme concentrations. Ki is that concentration of test compound giving 50% inhibition of the rate of substrate turnover. Examples A and B provide an exemplar of the in vitro assays used to select the compounds of the present invention.
The ability of the compounds of the present invention to act as inhibitors of factor Xa catalytic activity was assessed by determining the concentration which inhibited enzyme activity by 50%, (IC50), using the purified human factor Xa.
The buffer used for all assays was HBSA (10 mM HEPES, pH 7.5, 150 mM sodium chloride, 0.1% bovine serum albumin).
The assay was conducted by combining in appropriate wells of a Corning microtiter plate, 50 microliters of HBSA, 50 microliters of the test compound diluted in HBSA (or HBSA alone for uninhibited velocity measurement), and 50 microliters of the enzyme diluted in HBSA (prepared from purified human factor X obtained from Enzyme Research Laboratories according to the method described by Bock, P. E. et al. (1989) Archives of Biochem. Biophys. 273: 375. The enzyme was diluted into HBSA prior to the assay in which the final concentration was 0.5 nM). Following a 30 minute incubation at ambient temperature, 50 microliters of the substrate S2765 (N-alpha-benzyloxycarbonyl-D-argininyl-L-glycyl-L-arginine-p-nitroanilide dihydrochloride, obtained from Kabi Diagnostica and made up in deionized water followed by dilution in HBSA prior to the assay) was added to the wells yielding a final total volume of 200 microliters and a final concentration of 250 micromolar (about 5-times Km). The initial velocity of chromogenic substrate hydrolysis was measured by the change in absorbance at 405 nm using a Thermo Max® Kinetic Microplate Reader over a 5 minute period in which less than 5% of the added substrate was utilized. The concentration of added inhibitor which caused a decrease in the initial rate of hydrolysis was defined as the IC50 value.
The molecule `CN(CC(=O)N[C@H](C=O)CCCNC(=N)N)C(=O)[C@@H](CCCNC(=N)N)NS(=O)(=O)CC12CCC(CC1=O)C2(C)C` (stereo partly shown) registered an IC50 of 8.2 nM.

Molecule `CN(CC(=O)N[C@H](C=O)CCCNC(=N)N)C(=O)[C@@H](CCCNC(=N)N)NS(=O)(=O)Cc1ccccc1` came in with an IC50 of 1.7 nM.

Take `CN(CC(=O)NC(C=O)CCCNC(=N)N)C(=O)C(Cc1cccnc1)NS(=O)(=O)CC12CCC(CC1=O)C2(C)C` (stereo not shown): the IC50 came to 101 nM. This IC50 lies about 59-fold higher than the previous one.

`CN(CC(=O)NC(C=O)CCCNC(=N)N)C(=O)C(CC(=O)O)NS(=O)(=O)CC12CCC(CC1=O)C2(C)C` (stereo not shown): the IC50 was 4.6 nM. This IC50 lies about 22-fold lower than the previous one.

The molecule `CN(CC(=O)NC(C=O)CCCNC(=N)N)C(=O)CNS(=O)(=O)CC12CCC(CC1=O)C2(C)C` (stereo not shown) came in with an IC50 of 614 nM.

As to `CN(CC(=O)N[C@H](C=O)CCCNC(=N)N)C(=O)[C@@H](CCS(C)(=O)=O)NS(=O)(=O)Cc1ccccc1`, the IC50 is 637 nM.

Molecule `COC(=O)c1ccccc1S(=O)(=O)N[C@H](CCCNC(=N)N)C(=O)N(C)CC(=O)N[C@H](C=O)CCCNC(=N)N` registered an IC50 of 32 nM.

As for `CN(CC(=O)NC(C=O)CCCNC(=N)N)C(=O)C(Cc1cccnc1)NS(=O)(=O)Cc1ccccc1` (stereo not shown), the IC50 came to 926 nM.

Molecule `CS(=O)(=O)CCC(NS(=O)(=O)Cc1ccccc1)C(=O)N(CC(=O)NC(C=O)CCCNC(=N)N)C1CCCCC1` (stereo not shown) showed an IC50 of under 25 nM.

Molecule `CN(CC(=O)NC(C=O)CCCNC(=N)N)C(=O)C(CS(=O)(=O)CC(=O)O)NS(=O)(=O)CC12CCC(CC1=O)C2(C)C` (stereo not shown) displayed an IC50 of 7.3 nM.
